# According to patent US6812210B2, “Urocortin-III and uses thereof” (priority 2001, dated 2004):
# The chains behind the UniProt entries cited, without tags or fusion partners. Residues count along the entry.
# UniProt P47866, 1-431 isoform P47866-2: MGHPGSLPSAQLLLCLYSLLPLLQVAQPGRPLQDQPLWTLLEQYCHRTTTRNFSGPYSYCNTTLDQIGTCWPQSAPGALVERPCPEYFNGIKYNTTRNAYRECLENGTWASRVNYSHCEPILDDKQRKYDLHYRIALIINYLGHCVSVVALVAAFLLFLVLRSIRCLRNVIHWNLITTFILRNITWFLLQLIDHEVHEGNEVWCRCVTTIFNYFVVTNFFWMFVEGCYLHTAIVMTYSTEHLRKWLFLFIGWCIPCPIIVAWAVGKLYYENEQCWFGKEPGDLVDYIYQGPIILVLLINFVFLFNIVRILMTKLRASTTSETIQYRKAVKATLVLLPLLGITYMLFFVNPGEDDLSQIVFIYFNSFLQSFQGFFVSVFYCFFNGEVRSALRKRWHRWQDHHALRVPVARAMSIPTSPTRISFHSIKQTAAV
# UniProt P47866, whole entry: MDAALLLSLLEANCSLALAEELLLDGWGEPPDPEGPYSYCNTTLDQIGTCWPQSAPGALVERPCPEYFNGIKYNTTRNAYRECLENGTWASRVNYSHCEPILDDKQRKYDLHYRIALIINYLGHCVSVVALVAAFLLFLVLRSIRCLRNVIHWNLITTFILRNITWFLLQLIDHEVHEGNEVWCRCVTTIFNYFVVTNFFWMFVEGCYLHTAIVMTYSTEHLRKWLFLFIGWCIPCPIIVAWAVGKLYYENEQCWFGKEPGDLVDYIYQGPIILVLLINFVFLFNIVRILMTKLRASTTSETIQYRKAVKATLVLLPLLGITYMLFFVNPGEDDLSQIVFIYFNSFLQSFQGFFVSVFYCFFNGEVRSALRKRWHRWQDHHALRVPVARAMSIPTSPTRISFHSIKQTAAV
# UniProt Q60748, 1-431 isoform Q60748-2: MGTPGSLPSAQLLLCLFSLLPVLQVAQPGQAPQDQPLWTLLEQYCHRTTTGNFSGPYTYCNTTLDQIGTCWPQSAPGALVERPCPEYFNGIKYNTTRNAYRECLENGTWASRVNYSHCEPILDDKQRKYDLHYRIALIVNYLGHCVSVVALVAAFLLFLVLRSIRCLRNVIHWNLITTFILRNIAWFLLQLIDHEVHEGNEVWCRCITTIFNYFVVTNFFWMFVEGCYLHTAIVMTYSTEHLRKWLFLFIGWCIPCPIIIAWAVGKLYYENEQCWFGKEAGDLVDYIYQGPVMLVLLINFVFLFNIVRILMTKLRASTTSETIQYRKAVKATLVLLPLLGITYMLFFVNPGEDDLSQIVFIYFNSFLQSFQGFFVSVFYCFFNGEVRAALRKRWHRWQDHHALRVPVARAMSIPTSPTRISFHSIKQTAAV
# Columns and labels:
# [1] = target: T1, CRF-R2β (Rattus norvegicus, UniProt P47866); assay: cAMP accumulation in A7r5 rat aortic smooth muscle cells expressing endogenous CRF-R2β; assay type: cell-based
# T1 construct: cells expressing endogenous CRF-R1 (cultured primary anterior pituitary cells, (5)) or CRF-R2β (A7r5 cells, (27)); endogenous in cells; host or cells: A7r5 rat aortic smooth muscle cells
# Method: The abilities of Ucn II and Ucn III to activate adenylate cyclase in cells expressing endogenous CRF-R1 (cultured primary anterior pituitary cells, (5)) or CRF-R2β (A7r5 cells, (27)). Rat aortic smooth muscle cells, A7r5, were plated into 48-well culture dishes and allowed to recover for 48 h. Cells were starved in DMEM/0.2% FBS overnight before the experiment. The cells were preincubated with 0.1 mM 3-isobutyl-1-methylxanthine for 30 min and then exposed to peptides for 20 min at 37° C. Rat anterior pituitary cells were established in culture (28) and treated with test peptides for 45 min at 37° C. Intracellular cAMP was extracted from all cells and measured from triplicate wells using a radioimmunoassay kit (Biomedical Technologies). Potencies were determined using the PRISM […].
# [2] = target: T2, rCRF-R2α (Rattus norvegicus, UniProt P47866); assay: cAMP accumulation in CHO cells stably expressing rCRF-R2α; assay type: cell-based; conditions: peptides for 20 min at 37° C
# Method: (§1) Chinese hamster ovary cells stably transfected with either human CRF-R1 or murine CRF-R2 were plated into 48-well tissue culture dishes (Costar) and allowed to recover for 24 h. The medium was changed at least 2 h before treatments to DMEM/0.1% FBS. The cells were preincubated with 0.1 mM 3-isobutyl-1-methylxanthine for 30 min and then exposed to peptides for 20 min at 37° C. Intracellular cAMP accumulation in CHO cells stably transfected with either CRF-R1 or CRF-R2 was used as a measure of receptor activation. […] The potencies of Ucn II and III to activate CRF-R2α and CRF-R2β are approximately equal and nearly equivalent to that of Ucn. Thus, in the cAMP stimulation assay, both Ucn II and III show 'selectivity for CRF-R2 over CRF-R1, but no preference with respect to CRF-R2α and CRFR-2β. Further, the relative potencies of murine and human Ucn II and Ucn III to functionally activate CRF-R2 overlap in spite of the lower affinity of human Ucn III for binding to CRF-R2.
# [3] = target: T3, hCRF-R1 (Homo sapiens, UniProt P34998); assay: cAMP accumulation in CHO cells stably expressing hCRF-R1; assay type: cell-based; conditions: peptides for 20 min at 37° C
# T3 construct: expressed in transfected cells
# T3 sequence (P34998 24-415): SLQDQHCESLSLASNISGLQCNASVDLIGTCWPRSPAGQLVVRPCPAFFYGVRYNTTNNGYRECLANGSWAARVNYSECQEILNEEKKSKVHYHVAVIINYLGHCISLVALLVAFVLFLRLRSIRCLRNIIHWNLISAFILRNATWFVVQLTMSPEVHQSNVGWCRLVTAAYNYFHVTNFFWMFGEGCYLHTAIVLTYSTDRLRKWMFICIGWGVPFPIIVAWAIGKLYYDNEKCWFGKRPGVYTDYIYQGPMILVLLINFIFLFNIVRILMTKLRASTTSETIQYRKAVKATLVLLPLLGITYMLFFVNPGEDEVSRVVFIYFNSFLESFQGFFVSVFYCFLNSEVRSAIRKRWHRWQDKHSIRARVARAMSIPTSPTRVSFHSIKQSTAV
# [4] = target: T4, mCRF-R2β (Mus musculus, UniProt Q60748); assay: cAMP accumulation in CHO cells stably expressing mCRF-R2β; assay type: cell-based; conditions: peptides for 20 min at 37° C
# T4 construct: expressed in transfected cells
# Method: as §1
# [5] = target: T4, mCRF-R2β; assay: Competitive displacement of [125I-Tyr0,Glu1,Nle17]-sauvagine from membranes of CHO cells stably expressing mCRF-R2β; conditions: three to six independent experiments; average from log10 values; read-out: Binding to Membranes from CHO cells stably expressing mCRF-R2β (Ki)
# Method: (§2) The synthesized urocortin III was assayed for binding to the CRF-R1, CRF-R2α and CRF-R2β receptors by competitive displacement of ^251I[Tyr^0,Glu^1,Nle^17]sauvagine from Chinese hamster ovary cells stably expressing each receptor type. Stably transfected cell lines expressing CRF-R2α were generously provided by Demitri Grigoriadis, Neurocrine Biosciences Inc. Crude membrane fractions were prepared from Chinese hamster ovary cells stably expressing either cloned human CRF-R1 or mouse CRF-R2β as described (5). Test peptides and radio-ligand, [^125ITyr^0,Glu^1,Nle^17]-sauvagine, diluted in assay buffer (20 mM Hepes/2 mM EGTA/0.1% BSA/10% sucrose, pH 7.6), were combined with membrane fractions (10 μg) in MAGV microtiter plates (Millipore) precoated with 0.1% polyethyleneimine. After 90 min at room temperature, the reaction mixture was filtered and washed twice with assay buffer. The radioligand complex was quantified by gamma-counting. Inhibitory binding constants, Ki's, were determined by […].
# (§3) Data from at least 3 experiments were pooled and inhibitory dissociation constant (Ki) values were calculated using the Graphpad Prism program EC50 values. The average of their log10 value was calculated and used to exponentiate the number 10 to determine an ‘average’ EC50 value. The error was determined by calculating the standard deviation of the log10 values, by which the number 10 was exponentiated to determine an error factor. The calculated EC50 was then divided or multiplied by the error factor to determine the lower and upper error bounds, respectively.
# [6] = target: T2, rCRF-R2α; assay: Competitive displacement of [125I-Tyr0,Glu1,Nle17]-sauvagine from membranes of CHO cells stably expressing rCRF-R2α; conditions: three to six independent experiments; average from log10 values; read-out: Binding to Membranes from CHO cells stably expressing rCRF-R2α (Ki)
# Method: as §2, §3
# [7] = target: T3, hCRF-R1; assay: Competitive displacement of [125I-Tyr0,Glu1,Nle17]-sauvagine from membranes of CHO cells stably expressing hCRF-R1; conditions: three to six independent experiments; average from log10 values; read-out: Binding to Membranes from CHO cells stably expressing hCRF-R1 (Ki)
SMILES,EC50 [1] [nM],EC50 [2] [nM],EC50 [3] [nM],EC50 [4] [nM],Ki [5] [nM],Ki [6] [nM],Ki [7] [nM]
"CC[C@H](C)[C@H](NC(=O)[C@H](CCC(N)=O)NC(=O)[C@H](C)NC(=O)[C@H](CC(N)=O)NC(=O)[C@@H](NC(=O)[C@H](C)NC(=O)[C@H](C)NC(=O)[C@H](CCC(N)=O)NC(=O)[C@H](CC(N)=O)NC(=O)[C@H](CCCNC(=N)N)NC(=O)[C@H](C)NC(=O)[C@H](C)NC(=O)[C@H](CCCCN)NC(=O)[C@H](Cc1ccc(O)cc1)NC(=O)[C@H](CCCNC(=N)N)NC(=O)[C@H](C)NC(=O)[C@H](CCC(N)=O)NC(=O)[C@H](CCC(=O)O)NC(=O)[C@H](CC(C)C)NC(=O)[C@H](CC(C)C)NC(=O)[C@@H](NC(=O)[C@H](CCCNC(=N)N)NC(=O)[C@H](CC(C)C)NC(=O)[C@H](CC(C)C)NC(=O)CNC(=O)[C@@H](NC(=O)[C@@H]1CCCN1C(=O)[C@@H](NC(=O)[C@H](CC(=O)O)NC(=O)[C@H](CC(C)C)NC(=O)[C@H](CO)NC(=O)[C@H](CC(C)C)NC(=O)[C@@H](NC(=O)[C@@H](N)C(C)C)[C@@H](C)CC)C(C)C)[C@@H](C)CC)[C@@H](C)CC)[C@@H](C)O)C(=O)N[C@@H](CC(C)C)C(=O)N[C@@H](C)C(=O)N[C@@H](Cc1c[nH]cn1)C(=O)N[C@H](C(N)=O)C(C)C [Urocortin II (mouse), Mouse Urocortin II, reference compound]",0.18,0.14,> 100,0.05,0.66,2.1,> 100
"CC[C@H](C)[C@H](NC(=O)[C@H](CCC(N)=O)NC(=O)[C@H](C)NC(=O)[C@H](CCSC)NC(=O)[C@H](CC(C)C)NC(=O)[C@H](Cc1c[nH]cn1)NC(=O)[C@H](C)NC(=O)[C@H](CC(N)=O)NC(=O)[C@H](C)NC(=O)[C@H](C)NC(=O)[C@H](C)NC(=O)[C@H](CCC(N)=O)NC(=O)[C@H](C)NC(=O)[C@H](CCCNC(=N)N)NC(=O)[C@H](CC(C)C)NC(=O)[C@H](CC(N)=O)NC(=O)[C@H](CCCCN)NC(=O)[C@H](C)NC(=O)[C@H](CCCCN)NC(=O)[C@H](C)NC(=O)[C@@H](NC(=O)[C@H](CC(N)=O)NC(=O)[C@H](Cc1ccccc1)NC(=O)[C@H](CC(C)C)NC(=O)[C@H](CC(C)C)NC(=O)[C@H](CC(N)=O)NC(=O)[C@H](CCSC)NC(=O)[C@@H](NC(=O)[C@H](CC(N)=O)NC(=O)[C@@H](NC(=O)[C@@H]1CCCN1C(=O)[C@@H](NC(=O)[C@H](CC(=O)O)NC(=O)[C@H](CC(C)C)NC(=O)[C@H](CO)NC(=O)[C@H](CC(C)C)NC(=O)[C@@H](NC(=O)[C@@H](N)Cc1ccccc1)[C@@H](C)O)C(C)C)[C@@H](C)O)[C@@H](C)CC)[C@@H](C)CC)C(N)=O [Urocortin III (human), Human urocortin III]",80.9,0.16,> 100,0.12,13.5,21.7,> 100
"CC[C@H](C)[C@H](NC(=O)[C@H](CCC(N)=O)NC(=O)[C@H](C)NC(=O)[C@H](CCSC)NC(=O)[C@H](CC(C)C)NC(=O)[C@H](CCC(N)=O)NC(=O)[C@H](C)NC(=O)[C@H](CC(N)=O)NC(=O)[C@H](C)NC(=O)[C@H](C)NC(=O)[C@H](C)NC(=O)[C@H](CCCCN)NC(=O)[C@H](C)NC(=O)[C@H](CCCNC(=N)N)NC(=O)[C@H](CC(C)C)NC(=O)[C@H](CC(N)=O)NC(=O)[C@H](CCCCN)NC(=O)[C@H](C)NC(=O)[C@H](CCCCN)NC(=O)[C@H](CC(=O)O)NC(=O)[C@@H](NC(=O)[C@H](CC(N)=O)NC(=O)[C@H](Cc1ccccc1)NC(=O)[C@H](CC(C)C)NC(=O)[C@@H](NC(=O)[C@H](CC(N)=O)NC(=O)[C@H](CCSC)NC(=O)[C@@H](NC(=O)[C@H](CC(N)=O)NC(=O)[C@@H](NC(=O)[C@@H]1CCCN1C(=O)[C@@H](NC(=O)[C@H](CC(=O)O)NC(=O)[C@H](CC(C)C)NC(=O)[C@H](CO)NC(=O)[C@H](CC(C)C)NC(=O)[C@@H](NC(=O)[C@@H](N)Cc1ccccc1)[C@@H](C)O)C(C)C)[C@@H](C)O)[C@@H](C)CC)[C@@H](C)CC)[C@@H](C)CC)C(N)=O [Urocortin III (mouse), Mouse urocortin III]",3.7,0.073,> 100,0.081,1.8,5,> 100
